Patent US20100311668A1, “PERSONAL CARE AND COSMETIC COMPOSITION CONTAINING TETRAPEPTIDES WITH THE MOTIFS GX1X2G, PX1X2P, OR PX1X2K” (EVONIK GOLDSCHMIDT GMBH, priority 2007, published 2010)

System: collagen 1 alpha-2 (COL1A2)
Experiment: Collagen 1 alpha-2 (COL1A2) mRNA expression in human dermal fibroblasts, quantitative PCR
Assay type: cell-based
Details: HDFs, 1 μg/ml peptide, 24 hours, vs PBS control, normalized to 18S rRNA
Protocol: FIG. 4: Collagen 1 alpha-2 (COL1A2) expression in human dermal fibroblasts (HDFs). HDFs were incubated with 1 μg/ml of the respective tetrapeptide (SEQ ID NO:1-SEQ ID NO:4 and SEQ ID NO:11) or with a combination of all four tetrapeptides (SEQ ID NO:1,2,3,11). Controls received PBS. Cells were harvested after 24 hours incubation and RNA was isolated. Expression of FN1 was determined by quantitative PCR. 18s rRNA served as house keeping gene for normalization. Given are means of three independent experiments. […]
For isolation of total RNA RNeasy Total RNA Kits (Qiagen, Hilden; Germany) were used according to the manufacturer's guidelines. The RNA concentration was determined via photometric measurement at 260/280 (Biophotometer, Eppendorf, Hamburg, Germany).
Aliquots of total RNA (100 ng) were applied for cDNA-Synthesis using Superscript™ III First-Strand synthesis system for the reverse transcription step with random […] (Invitrogen, Karlsruhe, Germany). […] Three independent experiments were performed with 3 determinations each and the mean value of these was calculated. […] Each sample was analyzed in double employing the universal protocol over 46 cycles. […]

GAGP [SEQ ID NO:11, tetrapeptide GAGP]
COL1A2 expression: even more pronounced
